# Results published in article PMC12706802, “Ortho-Hydroxyanilides: Slow-Acting, Selective Histone Deacetylase 1/2 Inhibitors Suitable for Photocaging Applications” (ACS Pharmacology & Translational Science, 2025).
# The chains behind the UniProt entries cited, without tags or fusion partners.
# UniProt Q13547, whole entry: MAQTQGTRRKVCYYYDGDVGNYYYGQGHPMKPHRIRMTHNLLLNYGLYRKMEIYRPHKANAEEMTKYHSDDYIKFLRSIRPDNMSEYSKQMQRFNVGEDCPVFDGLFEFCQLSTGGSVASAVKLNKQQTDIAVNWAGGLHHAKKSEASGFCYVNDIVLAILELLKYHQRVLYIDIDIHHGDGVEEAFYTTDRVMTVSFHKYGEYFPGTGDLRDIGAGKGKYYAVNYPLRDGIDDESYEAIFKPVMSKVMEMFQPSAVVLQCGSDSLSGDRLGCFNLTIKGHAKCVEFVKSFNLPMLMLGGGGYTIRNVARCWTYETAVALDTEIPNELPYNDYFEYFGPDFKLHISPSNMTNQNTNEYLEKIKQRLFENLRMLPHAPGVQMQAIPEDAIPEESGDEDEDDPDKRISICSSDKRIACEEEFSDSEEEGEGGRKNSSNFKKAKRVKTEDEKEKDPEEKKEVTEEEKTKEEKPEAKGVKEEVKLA
# Columns and labels:
# [1] = biological target: T1, human recombinant HDAC6 (Homo sapiens, UniProt Q9UBN7); assay: Fluorescence-based biochemical HDAC enzyme inhibition assay (ZMAL substrate)
# T1 sequence (Q9UBN7 1-1215): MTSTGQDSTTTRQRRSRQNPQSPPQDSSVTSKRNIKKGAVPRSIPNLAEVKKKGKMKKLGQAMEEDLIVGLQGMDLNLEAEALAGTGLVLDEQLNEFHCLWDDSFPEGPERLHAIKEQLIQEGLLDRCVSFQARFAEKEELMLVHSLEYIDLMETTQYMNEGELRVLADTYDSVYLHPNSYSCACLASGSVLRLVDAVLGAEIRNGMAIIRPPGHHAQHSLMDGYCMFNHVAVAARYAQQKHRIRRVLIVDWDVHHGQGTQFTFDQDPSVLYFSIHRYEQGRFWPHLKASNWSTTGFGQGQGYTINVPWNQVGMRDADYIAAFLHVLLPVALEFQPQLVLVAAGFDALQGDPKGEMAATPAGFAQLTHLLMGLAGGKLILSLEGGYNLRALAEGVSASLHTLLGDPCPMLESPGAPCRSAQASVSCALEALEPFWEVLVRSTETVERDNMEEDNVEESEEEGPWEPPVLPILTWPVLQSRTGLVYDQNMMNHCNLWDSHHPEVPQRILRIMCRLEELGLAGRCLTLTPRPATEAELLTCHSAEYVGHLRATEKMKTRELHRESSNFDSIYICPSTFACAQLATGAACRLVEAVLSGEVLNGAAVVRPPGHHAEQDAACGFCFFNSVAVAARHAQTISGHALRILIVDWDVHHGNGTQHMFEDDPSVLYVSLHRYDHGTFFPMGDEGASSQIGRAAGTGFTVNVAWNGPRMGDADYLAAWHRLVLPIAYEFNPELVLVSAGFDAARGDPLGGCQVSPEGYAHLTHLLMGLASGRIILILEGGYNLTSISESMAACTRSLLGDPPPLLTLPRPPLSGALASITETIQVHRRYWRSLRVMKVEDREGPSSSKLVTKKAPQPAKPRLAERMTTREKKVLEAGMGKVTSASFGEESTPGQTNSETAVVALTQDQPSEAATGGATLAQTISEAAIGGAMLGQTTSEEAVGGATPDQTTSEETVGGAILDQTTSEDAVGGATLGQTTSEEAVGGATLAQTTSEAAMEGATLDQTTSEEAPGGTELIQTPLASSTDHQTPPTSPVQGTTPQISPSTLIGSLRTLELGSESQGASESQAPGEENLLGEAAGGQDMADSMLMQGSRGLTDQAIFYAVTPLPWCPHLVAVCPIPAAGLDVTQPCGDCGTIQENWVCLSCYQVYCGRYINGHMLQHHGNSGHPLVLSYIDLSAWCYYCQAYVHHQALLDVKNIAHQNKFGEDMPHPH
# [2] = biological target: HDAC1 (Homo sapiens, UniProt Q13547); assay: Binding kinetics via the progression method (continuous HDAC assay); format: biochemical; parameters: purchased BPS Bioscience Inc. #50051; conditions: 45 min, 28 °C
# Method: To this end, HDAC1, the substrate, and trypsin were incubated directly with the inhibitor at various concentrations and fluorescence was recorded continuously for 45 min. […] By plotting the ratio of the deacetylation rate in the presence of the inhibitor (v i) to the rate in absence of any inhibitor (v 0) as a function of the inhibitor concentration and fitting the data to an appropriate model (eq 3), the equilibrium […] K i was determined (Figure ).
# To investigate the binding mode of both compounds, we performed molecular docking studies. Specifically, ST13 was docked into HDAC2 (PDB ID: 3MAX), a cocrystal structure containing an HDAC inhibitor with an ortho-aminoanilide ZBG and a phenyl group as the FPU.
# Appropriate test compound concentrations were chosen based on the previously determined IC50 values. […] Each progression curve was fitted to either obtain the apparent first-order rate constant k obs (eq ) or the linear conversion rates v i and v 0 (eq ). For fast-on/fast-off inhibitors, the ratio v i/v 0 was plotted against the corresponding inhibitor concentrations.
SMILES,IC50 [1] [µM],"binding mechanism at HDAC1 (progression curves, kobs versus inhibitor concentration) [2]"
"CC(=O)Nc1ccc(C(=O)Nc2cc(-c3cccs3)ccc2N)cc1 [Cpd-60, reference compound]",> 10,
"O=C(CCCCCCC(=O)Nc1ccccc1)NO [vorinostat, reference compound]",,rapidly reached enzyme–inhibitor equilibrium
